Experiment [1] deals with TLR7 (Homo sapiens, UniProt Q9NYK1). The experiment can be described thus: TLR7 human PBMC cell-based assay (antagonist, GS-986 stimulated cytokine release). The note with it: read-out: TLR-7 EC50; human PBMCs; TLR7 agonist GS-986 400 nM, 6 hours; cytokines (IL-6 and IFNα) in supernatant. From the text:
(§1) Human peripheral blood mononuclear cells (PBMCs) consist of lymphocytes, monocytes and dendritic cells that express TLR7, TLR8 and TLR9. These cells respond to TLR7, TLR8 and TLR9 ligand stimulation and produce cytokines and chemokines in vitro and in vivo. Human PBMCs are therefore suitable to be used in a cell-based assay to assess the in vitro potency of a TLR 7, 8, and/or 9 antagonist. The result is expected to be more translatable to the pharmacodynamics response in vivo than cell line-based assays.
(§2) Cryopreserved human PBMCs from healthy donors were thawed and resuspended in RPMI-1640 media with L-glutamine (Corning) supplemented with 10% Fetal Bovine Serum (Hyclone) and 1× Penicillin-Streptomycin (Corning). After counting, the cell density was adjusted to 2 million cells/ml and incubated for 1 hour at 37° C., 5% CO2 for recovery. […] The level of cytokines (IL-6 and IFNα) in the supernatant was measured by electrochemiluminescence immunoassays (Mesoscale Discovery) following manufacturer's recommended protocols. The level of cytokine measured was plotted against the test antagonist concentration and fitted to a sigmoidal function to determine the EC50, which are shown below in Table 11.

Chains of the proteins cited; added tags and fusions are not shown. Residues count along the entry.
UniProt Q9NYK1, 27-1049 limits assumed: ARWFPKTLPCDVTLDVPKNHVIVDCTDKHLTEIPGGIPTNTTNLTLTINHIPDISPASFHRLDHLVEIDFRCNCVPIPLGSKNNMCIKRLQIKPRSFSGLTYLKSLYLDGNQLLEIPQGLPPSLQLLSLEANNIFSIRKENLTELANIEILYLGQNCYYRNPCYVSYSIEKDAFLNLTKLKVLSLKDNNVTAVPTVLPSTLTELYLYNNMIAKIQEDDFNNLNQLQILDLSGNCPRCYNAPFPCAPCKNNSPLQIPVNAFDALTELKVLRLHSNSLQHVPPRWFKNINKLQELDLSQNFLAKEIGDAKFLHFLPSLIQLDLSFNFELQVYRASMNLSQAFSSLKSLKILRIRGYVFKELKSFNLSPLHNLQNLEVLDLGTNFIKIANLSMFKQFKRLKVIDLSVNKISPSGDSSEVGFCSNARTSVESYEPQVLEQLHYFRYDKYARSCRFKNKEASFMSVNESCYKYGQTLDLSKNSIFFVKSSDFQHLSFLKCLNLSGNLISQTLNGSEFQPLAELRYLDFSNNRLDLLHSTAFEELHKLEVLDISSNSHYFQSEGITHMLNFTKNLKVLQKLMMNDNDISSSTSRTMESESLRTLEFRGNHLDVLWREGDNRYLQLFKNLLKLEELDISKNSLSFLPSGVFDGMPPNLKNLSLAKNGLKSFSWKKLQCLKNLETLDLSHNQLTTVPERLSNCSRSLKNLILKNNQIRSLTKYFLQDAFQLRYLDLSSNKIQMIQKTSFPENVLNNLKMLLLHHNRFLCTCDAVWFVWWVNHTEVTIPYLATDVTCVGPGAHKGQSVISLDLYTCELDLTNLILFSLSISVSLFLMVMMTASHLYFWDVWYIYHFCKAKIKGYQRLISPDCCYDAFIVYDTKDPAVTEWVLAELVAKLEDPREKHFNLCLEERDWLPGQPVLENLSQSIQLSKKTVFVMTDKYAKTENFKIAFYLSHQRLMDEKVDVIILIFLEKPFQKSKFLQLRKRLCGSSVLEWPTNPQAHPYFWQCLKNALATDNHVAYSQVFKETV
UniProt Q9NR97, 27-1041 limits assumed: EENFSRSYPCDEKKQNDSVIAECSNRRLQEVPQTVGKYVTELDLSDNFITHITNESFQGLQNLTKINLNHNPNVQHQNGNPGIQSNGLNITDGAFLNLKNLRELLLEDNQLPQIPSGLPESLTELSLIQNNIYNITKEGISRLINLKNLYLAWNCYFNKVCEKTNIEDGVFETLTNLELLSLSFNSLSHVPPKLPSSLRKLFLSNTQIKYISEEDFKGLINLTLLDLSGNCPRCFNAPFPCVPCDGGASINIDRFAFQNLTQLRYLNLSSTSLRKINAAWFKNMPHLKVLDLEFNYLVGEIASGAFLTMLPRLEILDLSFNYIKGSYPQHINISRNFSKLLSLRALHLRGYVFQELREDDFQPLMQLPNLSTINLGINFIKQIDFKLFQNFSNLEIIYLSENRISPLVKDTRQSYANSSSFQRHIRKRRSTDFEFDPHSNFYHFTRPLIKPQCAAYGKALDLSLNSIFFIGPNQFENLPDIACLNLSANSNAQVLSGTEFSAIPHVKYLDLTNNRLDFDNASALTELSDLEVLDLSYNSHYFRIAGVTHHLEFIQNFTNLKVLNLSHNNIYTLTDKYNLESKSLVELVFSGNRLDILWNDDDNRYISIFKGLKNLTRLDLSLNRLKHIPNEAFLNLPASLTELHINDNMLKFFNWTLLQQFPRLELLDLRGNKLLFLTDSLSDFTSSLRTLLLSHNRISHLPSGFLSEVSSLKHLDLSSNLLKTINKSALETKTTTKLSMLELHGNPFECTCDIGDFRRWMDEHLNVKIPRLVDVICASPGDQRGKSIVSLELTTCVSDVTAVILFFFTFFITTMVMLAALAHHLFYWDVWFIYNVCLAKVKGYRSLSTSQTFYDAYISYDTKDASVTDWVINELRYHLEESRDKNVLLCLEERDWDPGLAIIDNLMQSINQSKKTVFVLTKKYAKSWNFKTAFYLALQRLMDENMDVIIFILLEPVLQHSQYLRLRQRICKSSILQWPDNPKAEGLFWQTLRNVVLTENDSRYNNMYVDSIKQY

Experiment [2] has as its target TLR8 (Homo sapiens, UniProt Q9NR97). The experiment can be described thus: TLR8 human PBMC cell-based assay (antagonist, Compound A stimulated cytokine release). The note with it: read-out: TLR-8 EC50; human PBMCs; TLR8 agonist Compound A 800 nM, 6 hours; cytokines (TNFa and IL 12p40) in supernatant.
Source text: as §1
as §2, with “1X” for “1×”, “(TNFa” for “(IL-6”, “IL 12p40)” for “IFNα)”, “the” for “the test”

`Cc1cc(-c2[nH]c3cc(C4CCN(C(=O)C5CN(C)C5)CC4)sc3c2C(C)C)cn2ncnc12`: the figures for the EC50 in experiment [1] and in experiment [2] were 0.0275 µM and 0.275 µM, respectively.

For the origin of these results see patent publication US20240217990A1 (Gilead Sciences, Inc., priority 2021, published 2024).
